Test results: patent US20140079706A1 (published 2014)

Assays:
[1] = molecular target: T1, human wildtype CSF-1R (wt CSF-1R), full-length, on cells (human, UniProt P07333 20-972); test: cell-based or functional assay
[2] = molecular target: T1, human wildtype CSF-1R (wt CSF-1R), …; test: cell-based or functional assay; remark: listed apart in the source
[3] = molecular target: human mutant CSF-1R L301S Y969F, full-length, on NIH 3T3 cells (human, UniProt P07333 20-972); test: cell-based or functional assay
[4] = molecular target: T2, human CSF-1R fragment delD4 (comprising the extracellular subdomains D1-D3 and D5) (human, UniProt P07333 20-512); test: SPR Biacore T100, 25°C; antigen amine-coupled, antibody 10 nM
T2 construct: Made from hCSF1R-delD4-V1-PreSc-hFc-His in Hek293, released from protein A column by PreScission protease; the dimeric form (pool 1) was used for all experiments; also called hCSF-1R-delD4

[5] = molecular target: T3, human CSF-1R Extracellular Domain (CSF-1R-ECD) (comprising the extracellular subdomains D1-D5) (human, UniProt P07333 20-512); test: as above
T3 construct: Encoded by pCMV-preS-Fc-hCSF-1R-ECD (ECD, PreScission site, aa100-330 of human IgG1, 6xHis); also called hCSF-1R-ECD

[6] = molecular target: T2, human CSF-1R fragment delD4 (comprising …); test: SPR Biacore T100, 25°C; reference-subtracted signal of the nonbinding antibody
[7] = molecular target: T1, human wildtype CSF-1R (wt CSF-1R), …; test: cell-based or functional assay; remark: listed apart in the source
[8] = molecular target: T1, human wildtype CSF-1R (wt CSF-1R), …; test: cell-based or functional assay; remark: listed apart in the source

Row | Binder | IC50 of inhibition of the survival of human monocytes (separate test series) [1] [µg/mL] | wtCSF-1R IC50 (cell viability, CellTiterGlo, 3D spheroids) [2] [µg/mL] | Mutant CSF-1R IC50 (cell viability, CellTiterGlo, 3D spheroids) [3] [µg/mL] | Binding to delD4 [RU] [4] [RU] | Binding to CSF-1R-ECD [RU] [5] [RU] | binding signal [RU] before it was set as 0 [6] [RU] | IC50 CSF-1R Phosphorylation [7] [µg/mL] | IC50 of inhibition of the survival of human monocytes (150 ng/ml huCSF-1, CellTiterGlo) [8] [µg/mL]
1 | hMab 2F11-e7 (antibody, V domains shown) VH: QVQLVQSGAEVKKPGASVKVSCKASGYTFTSYDISWVRQAPGQGLEWMGVIWTDGGTNYAQKLQGRVTMTTDTSTSTAYMELRSLRSDDTAVYYCARDQRLYFDVWGQGTTVTVSS VL: DIQMTQSPSSLSASVGDRVTITCRASEDVNTYVSWYQQKPGKAPKLLIYAASNRYTGVPSRFSGSGSGTDFTLTISSLQPEDFATYYCQQSFSYPTFGQGTKLEIK | 0.04 | – | – | – | – | – | – | –
2 | hMab 2F11-f12 (antibody, V domains shown) VH: QVQLVQSGAEVKKPGSSVKVSCKASGFSLTTYDISWVRQAPGQGLEWMGVIWTDGGTNYNSPFMSRVTITKDESTSTAYMELSSLRSEDTAVYYCVRDQRLYFDVWGQGTTVTVSS VL: DIQMTQSPSSLSASVGDRVTITCRASEDVNTYVSWYQQKPGKAPKLLIYGASSLQSGVPSRFSGSGSGTDFTLTISSLQPEDFATYYCGQSFSYPTFGQGTKLEIK | 0.09 | – | – | – | – | – | – | –
3 | Mab 2F11 (antibody, V domains shown, Murine monoclonal antibody from hybridoma; also called <CSF-1R> Mab 2F11; muMab 2F11) VH: QVQLKESGPGLVAPSQSLSITCTVSGFSLTTYDISWIRQSPGKGLEWLGVIWTDGGTNYNSPFMSRLSIRKDNSKSQVFLKMNRLQTDDTAIYYCVRDQRLYFDVWGAGTTVTVSS VL: NIVMTQSPKSMSMSVGERVTLNCKASEDVNTYVSWYQQQPEQSPKLLIYGASNRYTGVPDRFTGGGSTTDFTLTISSVQAEDLADYFCGQSFSYPTFGTGTKLEIK | – | 1.1 | 8 | 0 | 176 | -3 | 0.219 | 0.08
4 | Mab 2E10 (antibody, V domains shown, Murine monoclonal antibody; also called <CSF-1R> Mab 2E10) VH: QVQLKESGPGLVAPSKSLSITCTVSGSSLDSFDISWIRQSPGKGLEWLGVIWTGGGTNYNSGFMSRLRITKDNSKSQVLLKMNSLQSDDTAIYYCVRDPRLYFDVWGAGTTVTVSS VL: NIVMTQSPKSMSMSVGERVTLSCKASEDVVTYVSWYQQKPDQSPKLLIYGASNRYTGVPDRFTGSGSATDFTLTISSVQAEDLADYYCGQTFSYPTFGTGTKLEIK | – | 0.49 | 4.9 | 0 | 120 | -2 | 0.752 | 0.06
5 | Mab 1G10 (antibody, V domains shown, Murine monoclonal antibody) VH: RVQLKESGPGLVAPSQSLSITCTVSGFSLTSYDISWIRQSPGKGLEWLGVIWSGGGTNYNSPFMSRLRISKDDSRSQVFLKVNRLQTDDTAIYYCVRDLRLYFDVWGAGTTVTVSS VL: KIVMTQSPKSMSVSVGERVSLSCKASEDVGTYVSWYQQKPEQSPKLLIYGSSNRYTGVPDRFTGSGSATDFTLTISSVQAEDLADYSCGQSFTYPTFGTGTKLEIK | – | 0.29 | 14.2 | 0 | 2710 | -6 | 0.0566 | 0.06
6 | Mab 2H7 (antibody, V domains shown, Murine monoclonal antibody) VH: QVQLKESGPGLVAPSKSLSITCTVSGSSLDSFDISWIRQPPGKGLEWLGVIWTGGGTNYNSGFMSRLRISKDNSKSQVFLKMSSLQSDDTAIYYCVRDPRLYFDVWGAGTTVTVSS VL: NIVMTQSPKSMSMSVGERVTLSCKASEDVVTYVSWYQQKPEQSPKLLIYGASNRYTGVPDRFTGSGSATDFTLTISSIQAEDLADYYCGQTFSYPTFGTGTKLEIK | – | 0.31 | 5.3 | 0 | 147 | -9 | 0.703 | 0.03
